Chains of the proteins cited; added tags and fusions are not shown.
UniProt P19634, whole entry: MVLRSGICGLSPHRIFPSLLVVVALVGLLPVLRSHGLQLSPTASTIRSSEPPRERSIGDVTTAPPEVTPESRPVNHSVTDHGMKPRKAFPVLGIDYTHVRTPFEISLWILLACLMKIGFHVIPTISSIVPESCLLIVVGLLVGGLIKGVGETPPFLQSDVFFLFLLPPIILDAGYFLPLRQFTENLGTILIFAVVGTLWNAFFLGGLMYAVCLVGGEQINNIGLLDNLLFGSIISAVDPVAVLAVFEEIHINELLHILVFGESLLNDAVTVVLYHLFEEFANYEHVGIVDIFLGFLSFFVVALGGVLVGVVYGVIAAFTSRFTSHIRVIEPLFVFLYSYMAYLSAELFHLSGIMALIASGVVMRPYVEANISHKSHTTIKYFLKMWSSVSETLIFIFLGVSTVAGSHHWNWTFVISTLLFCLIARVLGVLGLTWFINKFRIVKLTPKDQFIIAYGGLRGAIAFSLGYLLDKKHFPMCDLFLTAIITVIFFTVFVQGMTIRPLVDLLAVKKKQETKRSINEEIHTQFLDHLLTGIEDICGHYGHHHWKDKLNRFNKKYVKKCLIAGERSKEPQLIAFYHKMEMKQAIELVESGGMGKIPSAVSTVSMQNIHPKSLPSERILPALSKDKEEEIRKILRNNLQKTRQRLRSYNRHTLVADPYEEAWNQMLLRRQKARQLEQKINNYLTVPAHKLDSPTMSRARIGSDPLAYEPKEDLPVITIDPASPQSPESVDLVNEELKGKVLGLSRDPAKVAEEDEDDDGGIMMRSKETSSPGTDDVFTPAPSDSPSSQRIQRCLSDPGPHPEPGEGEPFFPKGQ

The assay addresses T1, human NHE-1 (Homo sapiens, UniProt P19634).
T1 construct: expressed in transfected cells; host or cells: PS120 cells (derived from CCL39 hamster fibroblasts)
Nature of the assay: NHE-1 inhibitory effect in PS120/NHE-1 cells (recovery from intracellular acidification, BCECF fluorescence). The format is cell-based. Conditions: PS120 cells expressing human NHE-1; 50% inhibition of recovery from intracellular acidification. Here is the method:
Following experiments were performed to investigate NHE-1 inhibitory effect of test samples in cells. Particularly, human NHE-1 was expressed in PS120 cells originated from CCL39. The cells were cultured in DMEM (Dulbecco's modified Eagle's medium) medium supplemented with 10% fetal bovine serum, 1% penicillin/streptomycin (100× solution) and 1% L-glutamine (200 mM aqueous solution). […] Then, the cells were washed once with PBS (phosphate buffer saline) and once again with Na-free buffer (138.2 mM choline chloride, 4.9 mM KCl, 1.5 mM CaCl2.2H2O, 1.2 mM MgSO4.7H2O, 1.2 mM KH2PO4, 15 mM D-glucose, 20 mM HEPES, at pH 7.4). […] In order to eliminate NH4Cl and to wash out BCECF-AM remaining outside of cells, PS120/NHE-1 cells were centrifuged and washed once with Na-free buffer. […] After 4 minutes from the cell addition, fluorescence (Excitation 485/444 nm, Emission 535 nm) was measured with a spectrofluorophotometer ([…]; Molecular Device) for 96-well plate. The measured fluorescent values were converted into pH by using high-K^+/nigericin technique. The acidified cells by NH4Cl prepulse were recovered by the action of NHE-1. […] In the meantime, cariporide was used as a control.
In general, IC50 refers to the concentration needed to halve the response being measured. Lower therefore signals greater potency in that assay. For “[5-(2,5-dimethoxyphenyl)furan-2-ylcarbonyl]guanidine [Example 47]”, the IC50 worked out at 3.4 µM.

“[5-(4-aminophenyl)furan-2-ylcarbonyl]guanidine [Example 22]” gave a half-inhibitory concentration (IC50) of more than 30 µM.

The substance “[5-(4-fluorophenyl)furan-2-ylcarbonyl]guanidine [Example 3]” came in with a half-maximal inhibitory concentration (IC50) of 17 µM.

For “[5-(4-nitrophenyl)furan-2-ylcarbonyl]guanidine [Example 19]”, the IC50 is more than 30 µM.

These data come from patent US7351843B2, “Furancarbonylguanidine derivatives, their preparation and pharmaceutical compositions containing them” (Korea Research Institute of Chemical Technology, priority 2003, dated 2008).
